Test system: wild-type (WT) and vesicular monoamine transporter 2 (VMAT2) heterozygous (HET) mice
Experiment: Tail suspension test (immobility time) in wild-type and VMAT2 heterozygous mice
Assay type: in vivo
Details: for immobility time during the tail suspension test: 30 min after administration, 20 mg/kg fluoxetine i.p., compared to vehicle
Method: Tail suspension: This test was conducted as described in the literature (Acta Crystallographica Section D, 2010, 66:486-501). Mice were administered vehicle, fluoxetine (Sigma-Aldrich, St. Louis, MO), 38, or 33 (i.p.). Immobility times were assessed over 6 min using MedAssociates software.
Statistics: Statistical analyses were performed with IBM SPSS Statistics 27 programs (IBM, Chicago, IL). The data are presented as means and standard errors of the mean. No sex effects were detected. One- or two-way ANOVA or repeated measures ANOVA (RMANOVA) were used, followed by Bonferroni corrected post-hoc analyses. A p<0.05 was considered significant. All behavioral results were plotted using GraphPad Prism.

Compound: CNCCC(Oc1ccc(C(F)(F)F)cc1)c1ccccc1 (stereo not drawn) [fluoxetine, reference compound]
- dose restoring wild-type levels of mobility, relative to 0.5 mg/kg of 38 and 1 mg/kg of 33 (VMAT2-heterozygous mice, tail suspension): 40 to 20 fold
- immobility time during the tail suspension test (VMAT2 HET mice): reduced immobility time significantly
- immobility time during the tail suspension test (WT mice): no effects

— patent US20230365542A1, “Selective Agonists of 5-HT2A Receptor and Methods of Use” (Yale University, priority 2020, published 2023)
